biological target: Bcl-2 (Homo sapiens (Human), UniProt P10415); experiment: TR-FRET binding assay with GST-Bcl-2 substituted for GST-Bcl-xL; conditions: not given

Protein sequences, listed by entry. Tags and fused reporters are not part of them.
UniProt P10415, whole entry: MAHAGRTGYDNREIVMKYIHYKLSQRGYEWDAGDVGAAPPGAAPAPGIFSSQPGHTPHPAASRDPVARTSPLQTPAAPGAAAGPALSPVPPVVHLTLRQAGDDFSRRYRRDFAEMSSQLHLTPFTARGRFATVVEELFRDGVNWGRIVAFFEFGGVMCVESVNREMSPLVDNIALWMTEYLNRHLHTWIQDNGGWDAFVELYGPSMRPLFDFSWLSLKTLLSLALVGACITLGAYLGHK

SMILES	Ki
Cc1c(-c2ccc(N3CCc4cccc(C(=O)Nc5nc6ccccc6s5)c4C3)nc2C(=O)O)cnn1CC1CCCCC1 [Example 43, 6-[8-(1,3-benzothiazol-2-ylcarbamoyl)-3,4-dihydroisoquinolin-2(1H)-yl]-3-[1-(cyclohexylmethyl)-5-methyl-1H-pyrazol-4-yl]pyridine-2-carboxylic acid]	23 nM
Cc1c(-c2ccc(N3CCc4cccc(C(=O)Nc5nc6ccccc6s5)c4C3)nc2C(=O)O)cnn1Cc1ccccc1OCCN(C)C [Example 49, 6-[8-(1,3-benzothiazol-2-ylcarbamoyl)-3,4-dihydroisoquinolin-2(1H)-yl]-3-(1-{2-[2-(dimethylamino)ethoxy]benzyl}-5-methyl-1H-pyrazol-4-yl)pyridine-2-carboxylic acid]	39 nM
Cc1c(-c2ccc(N3CCc4cccc(C(=O)Nc5nc6ccccc6s5)c4C3)nc2C(=O)O)cnn1CC1(C)CCCCC1 [Example 82, 6-[8-(1,3-benzothiazol-2-ylcarbamoyl)-3,4-dihydroisoquinolin-2(1H)-yl]-3-{5-methyl-1-[(1-methylcyclohexyl)methyl]-1H-pyrazol-4-yl}pyridine-2-carboxylic acid]	33 nM
Cc1c(-c2ccc(N3CCc4cccc(C(=O)Nc5nc6ccccc6s5)c4C3)nc2C(=O)O)cnn1Cc1ccccc1OCC1CCOCC1 [Example 99, 6-[8-(1,3-benzothiazol-2-ylcarbamoyl)-3,4-dihydroisoquinolin-2(1H)-yl]-3-{5-methyl-1-[2-(tetrahydro-2H-pyran-4-ylmethoxy)benzyl]-1H-pyrazol-4-yl}pyridine-2-carboxylic acid]	33 nM
Cc1c(CC2CCCCC2)cccc1-c1ccc(N2CCc3cccc(C(=O)Nc4nc5ccccc5s4)c3C2)nc1C(=O)O [Example 107, 6-[8-(1,3-benzothiazol-2-ylcarbamoyl)-3,4-dihydroisoquinolin-2(1H)-yl]-3-[3-(cyclohexylmethyl)-2-methylphenyl]pyridine-2-carboxylic acid]	56 nM
O=C(Nc1nc2ccccc2s1)c1cccc2c1CN(c1ccc(-c3cccc(OC4CCCCC4)c3Cl)c(C(=O)O)n1)CC2 [Example 117, 6-[8-(1,3-benzothiazol-2-ylcarbamoyl)-3,4-dihydroisoquinolin-2(1H)-yl]-3-[2-chloro-3-(cyclohexyloxy)phenyl]pyridine-2-carboxylic acid]	21 nM
Cc1c(-c2ccc(N3CCc4cccc(C(=O)Nc5nc6ccccc6s5)c4C3)nc2C(=O)O)cc(C#N)n1CC1CCCCC1 [Example 130, 6-[8-(1,3-benzothiazol-2-ylcarbamoyl)-3,4-dihydroisoquinolin-2(1H)-yl]-3-[5-cyano-1-(cyclohexylmethyl)-2-methyl-1H-pyrrol-3-yl]pyridine-2-carboxylic acid]	76 nM
COCCC1(Cn2ncc(-c3ccc(N4CCc5cccc(C(=O)Nc6nc7ccccc7s6)c5C4)nc3C(=O)O)c2C)CCCCCC1 [Example 134, 6-[8-(1,3-benzothiazol-2-ylcarbamoyl)-3,4-dihydroisoquinolin-2(1H)-yl]-3-(1-{[1-(2-methoxyethyl)cycloheptyl]methyl}-5-methyl-1H-pyrazol-4-yl)pyridine-2-carboxylic acid]	24 nM
COCCC1(Cn2ncc(-c3ccc(N4CCc5cccc(C(=O)Nc6nc7ccccc7s6)c5C4)nc3C(=O)NS(C)(=O)=O)c2C)CCCCCC1 [Example 148, N-(1,3-benzothiazol-2-yl)-2-{5-(1-{[1-(2-methoxyethyl)cycloheptyl]methyl}-5-methyl-1H-pyrazol-4-yl)-6-[(methylsulfonyl)carbamoyl]pyridin-2-yl}-1,2,3,4-tetrahydroisoquinoline-8-carboxamide]	75 nM
Cc1c(-c2ccc(N3CCc4cccc(C(=O)Nc5nc6ccccc6s5)c4C3)nc2C(=O)O)cc(C#N)n1CC1(N(C)C)CCCCC1 [Example 176, 6-[8-(1,3-benzothiazol-2-ylcarbamoyl)-3,4-dihydroisoquinolin-2(1H)-yl]-3-(5-cyano-1-{[1-(dimethylamino)cyclohexyl]methyl}-2-methyl-1H-pyrrol-3-yl)pyridine-2-carboxylic acid]	177 nM
CNCCOC1(Cn2ncc(-c3ccc(N4CCc5cccc(C(=O)Nc6nc7ccccc7s6)c5C4)nc3C(=O)O)c2C)CCCC(C)(C)C1 (stereo not shown) [Example 185, 6-[8-(1,3-benzothiazol-2-ylcarbamoyl)-3,4-dihydroisoquinolin-2(1H)-yl]-3-[1-({3,3-dimethyl-1-[2-(methylamino)ethoxy]cyclohexyl}methyl)-5-methyl-1H-pyrazol-4-yl]pyridine-2-carboxylic acid]	14 nM

same assay, conditions: GST-Bcl-2; read-out: Ki, competition with F-Bak for the Bcl-2 binding site (TR-FRET)

SMILES	Ki
Cc1c(-c2ccc(N3CCc4cccc(C(=O)Nc5nc6ccccc6s5)c4C3)nc2C(=O)O)cccc1N(C)C1CCCC(C)(C)C1 (stereo not shown) [Example 159, 6-[8-(1,3-benzothiazol-2-ylcarbamoyl)-3,4-dihydroisoquinolin-2(1H)-yl]-3-{3-[(3,3-dimethylcyclohexyl)(methyl)amino]-2-methylphenyl}pyridine-2-carboxylic acid]	272 nM

tested on: not listed separately; experiment: Single Dose Pharmacokinetics, oral bioavailability; format: in vivo, Sprague-Dawley rats; conditions: Rat p.o. dose, 1 mpk

SMILES	F (%), dose
Cc1c(-c2ccc(N3CCc4cccc(C(=O)Nc5nc6ccccc6s5)c4C3)nc2C(=O)O)cccc1N(C)c1ccccc1 [Example 156, 6-[8-(1,3-benzothiazol-2-ylcarbamoyl)-3,4-dihydroisoquinolin-2(1H)-yl]-3-{2-methyl-3-[methyl(phenyl)amino]phenyl}pyridine-2-carboxylic acid]	39, 1 mpk %
COC1(Cn2ncc(-c3ccc(N4CCc5cccc(C(=O)Nc6nc7ccccc7s6)c5C4)nc3C(=O)O)c2C)CCCC(C)(C)C1 (stereo not shown) [Example 157, 6-[8-(1,3-benzothiazol-2-ylcarbamoyl)-3,4-dihydroisoquinolin-2(1H)-yl]-3-{1-[(1-methoxy-3,3-dimethylcyclohexyl)methyl]-5-methyl-1H-pyrazol-4-yl}pyridine-2-carboxylic acid]	30, 1 mpk %

same assay, conditions: Rat p.o. dose, 5 mpk

SMILES	F (%), dose
CC(c1ccccc1)n1cc(-c2ccc(N3CCc4cccc(C(=O)Nc5nc6ccccc6s5)c4C3)nc2C(=O)O)cn1 (stereo not shown) [Example 5, 6-[8-(1,3-benzothiazol-2-ylcarbamoyl)-3,4-dihydroisoquinolin-2(1H)-yl]-3-[1-(1-phenylethyl)-1H-pyrazol-4-yl]pyridine-2-carboxylic acid]	19, 5 mpk %
Cc1nn(Cc2ccccc2)c(C)c1-c1ccc(N2CCc3cccc(C(=O)Nc4nc5ccccc5s4)c3C2)nc1C(=O)O [Example 12, 6-[8-(1,3-benzothiazol-2-ylcarbamoyl)-3,4-dihydroisoquinolin-2(1H)-yl]-3-(1-benzyl-3,5-dimethyl-1H-pyrazol-4-yl)pyridine-2-carboxylic acid]	29, 5 mpk %
Cc1nn(Cc2ccccc2)cc1-c1ccc(N2CCc3cccc(C(=O)Nc4nc5ccccc5s4)c3C2)nc1C(=O)O [Example 19, 6-[8-(1,3-benzothiazol-2-ylcarbamoyl)-3,4-dihydroisoquinolin-2(1H)-yl]-3-(1-benzyl-3-methyl-1H-pyrazol-4-yl)pyridine-2-carboxylic acid]	22, 5 mpk %
Cc1c(-c2ccc(N3CCc4cccc(C(=O)Nc5nc6ccccc6s5)c4C3)nc2C(=O)O)cnn1Cc1ccccc1 [Example 20, 6-[8-(1,3-benzothiazol-2-ylcarbamoyl)-3,4-dihydroisoquinolin-2(1H)-yl]-3-(1-benzyl-5-methyl-1H-pyrazol-4-yl)pyridine-2-carboxylic acid]	17, 5 mpk %
Cc1c(-c2ccc(N3CCc4cccc(C(=O)Nc5nc6ccccc6s5)c4C3)nc2C(=O)O)cnn1CC1CCCC1 [Example 63, 6-[8-(1,3-benzothiazol-2-ylcarbamoyl)-3,4-dihydroisoquinolin-2(1H)-yl]-3-[1-(cyclopentylmethyl)-5-methyl-1H-pyrazol-4-yl]pyridine-2-carboxylic acid]	20, 5 mpk %
COCCC1(Cn2cc(-c3ccc(N4CCc5cccc(C(=O)Nc6nc7ccccc7s6)c5C4)nc3C(=O)O)cn2)CCCCC1 [Example 88, 6-[8-(1,3-benzothiazol-2-ylcarbamoyl)-3,4-dihydroisoquinolin-2(1H)-yl]-3-(1-{[1-(2-methoxyethyl)cyclohexyl]methyl}-1H-pyrazol-4-yl)pyridine-2-carboxylic acid]	23, 5 mpk %
COCCCC1(Cn2ncc(-c3ccc(N4CCc5cccc(C(=O)Nc6nc7ccccc7s6)c5C4)nc3C(=O)O)c2C)CCCCC1 [Example 97, 6-[8-(1,3-benzothiazol-2-ylcarbamoyl)-3,4-dihydroisoquinolin-2(1H)-yl]-3-(1-{[1-(3-methoxypropyl)cyclohexyl]methyl}-5-methyl-1H-pyrazol-4-yl)pyridine-2-carboxylic acid]	33, 5 mpk %
Cc1c(-c2ccc(N3CCc4cccc(C(=O)Nc5nc6ccccc6s5)c4C3)nc2C(=O)O)cnn1Cc1ccccc1OCC1CCOCC1 [Example 99, 6-[8-(1,3-benzothiazol-2-ylcarbamoyl)-3,4-dihydroisoquinolin-2(1H)-yl]-3-{5-methyl-1-[2-(tetrahydro-2H-pyran-4-ylmethoxy)benzyl]-1H-pyrazol-4-yl}pyridine-2-carboxylic acid]	19, 5 mpk %
O=C(Nc1nc2ccccc2s1)c1cccc2c1CN(c1ccc(-c3cccc(Cc4ccccc4)c3)c(C(=O)O)n1)CC2 [Example 106, 6-[8-(1,3-benzothiazol-2-ylcarbamoyl)-3,4-dihydroisoquinolin-2(1H)-yl]-3-(3-benzylphenyl)pyridine-2-carboxylic acid]	24, 5 mpk %
O=C(Nc1nc2ccccc2s1)c1cccc2c1CN(c1ccc(-c3cn(Cc4ccccc4)nn3)c(C(=O)O)n1)CC2 [Example 122, 6-[8-(1,3-benzothiazol-2-ylcarbamoyl)-3,4-dihydroisoquinolin-2(1H)-yl]-3-(1-benzyl-1H-1,2,3-triazol-4-yl)pyridine-2-carboxylic acid]	40, 5 mpk %
COCCC1(Cn2ncc(-c3ccc(N4CCc5cccc(C(=O)Nc6nc7ccccc7s6)c5C4)nc3C(=O)O)c2C)CCCC(C)(C)C1 (stereo not shown) [Example 146, 6-[8-(1,3-benzothiazol-2-ylcarbamoyl)-3,4-dihydroisoquinolin-2(1H)-yl]-3-(1-{[1-(2-methoxyethyl)-3,3-dimethylcyclohexyl]methyl}-5-methyl-1H-pyrazol-4-yl)pyridine-2-carboxylic acid]	16, 5 mpk %

Source: US9266877B2, “Apoptosis-inducing agents for the treatment of cancer and immune and autoimmune diseases” (priority 2011, dated 2016)
